Assay results from article PMC3319116 (Journal of Medicinal Chemistry, 2012).

Sequences of proteins named here, by UniProt entry; tags and fusion partners are left off.
UniProt P21554, whole entry: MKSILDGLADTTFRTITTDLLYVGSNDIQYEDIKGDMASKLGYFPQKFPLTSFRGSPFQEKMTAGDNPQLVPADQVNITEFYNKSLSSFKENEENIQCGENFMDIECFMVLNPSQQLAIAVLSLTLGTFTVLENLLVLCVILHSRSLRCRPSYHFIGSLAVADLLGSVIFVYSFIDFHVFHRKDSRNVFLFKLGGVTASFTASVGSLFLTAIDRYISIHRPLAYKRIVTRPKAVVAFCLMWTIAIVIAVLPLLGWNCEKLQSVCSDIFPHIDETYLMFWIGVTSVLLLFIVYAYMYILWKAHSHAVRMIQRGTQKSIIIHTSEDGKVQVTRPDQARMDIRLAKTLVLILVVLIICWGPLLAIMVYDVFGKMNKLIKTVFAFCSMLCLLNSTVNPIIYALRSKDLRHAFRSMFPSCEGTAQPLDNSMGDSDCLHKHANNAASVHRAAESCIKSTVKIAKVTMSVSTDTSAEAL

Target: CB1 (Homo sapiens, UniProt P21554)
Assay: Radioligand displacement of [3H]CP55940 at CB1
Details: ratio of Ki CB2 to Ki CB1, [3H]CP55940

CB2:CB1 ratio: 17
Compound: Cc1c(C(=O)NCC2CCC(CNS(N)(=O)=O)CC2)nn(-c2ccc(Cl)cc2Cl)c1-c1ccc(Cl)cc1 (stereo not shown) [Compound 8]
